The nature of series [1]: Phase I clinical study: safety, tolerability, pharmacokinetics and pharmacodynamics of single and multiple subcutaneous administrations. As to the method:
A randomized, double-blind, dose-escalating, placebo-controlled Phase I clinical study was conducted in healthy subjects to evaluate the safety, tolerability, pharmacokinetic and pharmacodynamic profiles of single and multiple subcutaneous administrations of GLP-1 analogue injections

The nature of series [2]: Phase II clinical study of efficacy and safety in obese, non-diabetic subjects. As for the experimental part:
• 1) The GLP-1 analogue prepared in Example 1, presented as an injection with a specification of 3ml : 30 mg.
Subjects must meet all of the following criteria to be eligible for enrollment in this study: • 1) Aged 18-65 years (inclusive), without restriction on gender; • 2) Body mass index (BMI) at screening: 28.0-40.0 kg/m^2 (inclusive); • 3) Self-reported diet and exercise intervention for 3 months or more prior to screening, with a body weight fluctuation (the difference between the maximum and minimum body weight within 3 months) not exceeding 5 kg in the latest 3 months.
The GLP-1 analogue or placebo was administered via subcutaneous injection into the abdomen, either before or after meals. The detailed dosing regimen is as follows: Table 1. Dosing regimens for the first treatment period (weeks 0-23) and the second treatment period (weeks 24-31)
Efficacy assessment indicators include body weight, waist circumference, BMI, blood pressure (systolic blood pressure and diastolic blood pressure), glucose metabolism (fasting plasma glucose, fasting serum insulin, insulin resistance (HOMA model*), and HbA1c), and lipids (TC, LDLC, HDL-C, and TG). • *Note: Insulin resistance under the Homeostasis Model Assessment (HOMA) (HOMA-IR) is calculated using the following formula: HOMA−IR = [Fastingplasmaglucose(FPG,mmol/L)×Fastinginsulin(FINS,mIU/L)]/22.5 [formula]
(§1) Safety evaluation indicators include adverse events, laboratory indicators, 12-lead electrocardiogram, vital signs, physical examination, PHQ-9 score, etc.
A total of 249 Chinese adults with a body mass index of 28-40kg/m^2 received once-weekly subcutaneous injections of a GLP-1 analogue (1.0 mg QW group, 3.0 mg QW group, 4.5 mg QW group, 6.0 mg QW group) or placebo for 24 weeks (24W), in accordance with the dosing regimen for the first treatment period specified in Table 1.

Series [3] in a line: Clinical study of efficacy and safety in overweight or obese subjects, target dose 8.0 mg QW. Particulars: after 36 weeks of administration, 8.0 mg group.
Text: • 1) The GLP-1 analogue prepared in Example 1, presented as an injection.
Subjects who are overweight with at least one weight-related comorbidity or obese subjects who had suboptimal response to dietary and lifestyle intervention alone.
Subjects must meet all of the following criteria to be eligible for this study: • 1) Aged 18-65 years (inclusive), without restriction on gender; • 2) Met the following body mass index (BMI) criteria at screening: • -28.0-40.0 kg/m^2 (inclusive), or • -24.0 (inclusive) - 28.0 (exclusive) kg/m^2 and having at least one weight-related comorbidity • 3) Self-reported diet and exercise intervention for 3 months or more prior to screening, with a body weight fluctuation (the difference between the maximum and minimum body weight within 3 months) not exceeding 5 kg in the latest 3 months;
The GLP-1 analogue injection or placebo was administered via abdominal subcutaneous injection once a week, either before or after meals. GLP-1 analogue injection or placebo was administered starting at 1.0 mg QW, with dose escalation every 4 weeks, gradually titrated to reach the target dose of 8.0 mg QW. The specific dosing regimen is shown in Table 7 below: Table 7: Dosing regimen
Efficacy evaluation indicators include body weight, waist circumference, BMI, blood pressure (systolic and diastolic blood pressure), glucose metabolism (fasting plasma glucose, fasting serum insulin, HbA1c), and blood lipids (TG, TC, LDL-C, non-HDL-C, HDL-C).
as §1

The mark [4] stands for this setting: D22, after the fourth subcutaneous administration of 0.9 mg, 2.7 mg and 5.4 mg.
Where [5] appears, read: single subcutaneous injection, 0.1 to 8.1 mg, across all dose groups.
Setting [6] is: W24, range across the GLP-1 analogue groups (1.0 to 6.0 mg QW).

These results are taken from patent publication EP4825392A1, “METHOD FOR TREATING METABOLIC DISEASES AND PHARMACEUTICAL USE OF GLP-1 ANALOGUE” (dated 2026).

Turning to “H-YAibEGTFTSDYSIYK(OEG-OEG-γGlu-C20-OH)EKIAAQEFVNWLLAGGPSSGAPPPS-NH2”, in series [1] (0.9 mg and 2.7 mg dose groups), the “exposure accumulation ratio on D22” value is recorded as “approximately 2 fold”. Moreover, the “severe hypoglycemia or serious adverse events” value in series [1] (72 subjects, single or multiple administrations, 0.1 to 8.1 mg) is reported as “No severe hypoglycemia or serious adverse events occurred”. In series [1] (72 subjects, single or multiple administrations, 0.1 to 8.1 mg (47/72)), the “incidence of GLP-1 analogue-related adverse events (AEs)” value was 65.3%. Also, in series [1] (setting [4]), the “arithmetic mean of t1/2” value lay within 169 to 192 h, the “geometric mean of MRT” value fell in the range of 279 to 303 h and the “geometric mean of steady-state apparent clearance (CLss/F)” value was 27.7 to 41.1 mL/h. Besides, the “median time to peak” value in series [1] (D22, after the fourth subcutaneous administration of 0.9 mg, 2.7 mg and 5.4 mg, all dose groups) was 48 to 72 h. In series [1] (setting [5]), the “arithmetic mean of the terminal elimination half-life (t1/2)” value is 156 to 182 h, the “geometric mean of the mean residence time (MRT)” value was in the range of 251 to 288 h and the “median time to peak” value fell in the range of 48 to 72 h. The “treatment-related serious adverse events” value in series [2] (24 weeks, 1.0 to 6.0 mg QW groups) is “No treatment-related serious adverse events occurred”. In series [2] (setting [6]), the “least squares mean change in systolic blood pressure from baseline” value is reported as -4.46 to -8.33 mmHg and the “least squares mean change in waist circumference from baseline” value is -5.14 to -12.73 cm. In addition, in series [2] (week 24, 1.0 mg QW group), the “mean percentage change in body weight from baseline” value (“mean percentage change” below) is reported as -5.4% and the “percentages of participants who experienced a weight loss of ≥5%” value worked out at 52.0%. Further, in series [2] (week 24, 3.0 mg QW group), the “mean percentage change” value was -13.4% and the “percentages of participants who experienced a weight loss of ≥5%” value is 88.2%. Besides, in series [2] (week 24, 4.5 mg QW group), the “mean percentage change” value is -14.0% and the “percentages of participants who experienced a weight loss of ≥5%” value stood at 92.0%. Moreover, in series [2] (week 24, 6.0 mg QW group), the “mean percentage change” value is listed as -16.8% and the “percentages of participants who experienced a weight loss of ≥5%” value turned out to be 91.8%. Besides, in series [3], the “least squares mean difference compared with the placebo group (percentage change in body weight)” value is -21.09%, the “percentage change in body weight from baseline” value is given as -22.82% and the “subjects who achieved a weight loss of ≥20%” value is listed as 59%.
